In patent US20150118311A1, “Highly Penetrative Nanocarriers for Treatment of CNS Disease” (priority 2012, published 2015):

System: GS5 cells
Assay: GS5 cell proliferation/viability (MTT, AlamarBlue)
Assay type: cell-based, human
Settings: read-out: IC50 of candidate drugs on GS5 cells, three days after treatment

## 8-Hydroxyquinidine
  IC50: 2700 nM

## PAPP
  IC50: 900 nM
